Experimental data from patent US4518581A, “Imparting low- or anti-cariogenic property to orally-usable products” (Kabushiki Kaisha Hayashibara Seibutsu Kagaku Kenkyujo, priority 1981, dated 1985).

Protein sequences, listed by entry. Tags and fused reporters are not part of them. Residues count along the entry.
UniProt P27470, 39-1592: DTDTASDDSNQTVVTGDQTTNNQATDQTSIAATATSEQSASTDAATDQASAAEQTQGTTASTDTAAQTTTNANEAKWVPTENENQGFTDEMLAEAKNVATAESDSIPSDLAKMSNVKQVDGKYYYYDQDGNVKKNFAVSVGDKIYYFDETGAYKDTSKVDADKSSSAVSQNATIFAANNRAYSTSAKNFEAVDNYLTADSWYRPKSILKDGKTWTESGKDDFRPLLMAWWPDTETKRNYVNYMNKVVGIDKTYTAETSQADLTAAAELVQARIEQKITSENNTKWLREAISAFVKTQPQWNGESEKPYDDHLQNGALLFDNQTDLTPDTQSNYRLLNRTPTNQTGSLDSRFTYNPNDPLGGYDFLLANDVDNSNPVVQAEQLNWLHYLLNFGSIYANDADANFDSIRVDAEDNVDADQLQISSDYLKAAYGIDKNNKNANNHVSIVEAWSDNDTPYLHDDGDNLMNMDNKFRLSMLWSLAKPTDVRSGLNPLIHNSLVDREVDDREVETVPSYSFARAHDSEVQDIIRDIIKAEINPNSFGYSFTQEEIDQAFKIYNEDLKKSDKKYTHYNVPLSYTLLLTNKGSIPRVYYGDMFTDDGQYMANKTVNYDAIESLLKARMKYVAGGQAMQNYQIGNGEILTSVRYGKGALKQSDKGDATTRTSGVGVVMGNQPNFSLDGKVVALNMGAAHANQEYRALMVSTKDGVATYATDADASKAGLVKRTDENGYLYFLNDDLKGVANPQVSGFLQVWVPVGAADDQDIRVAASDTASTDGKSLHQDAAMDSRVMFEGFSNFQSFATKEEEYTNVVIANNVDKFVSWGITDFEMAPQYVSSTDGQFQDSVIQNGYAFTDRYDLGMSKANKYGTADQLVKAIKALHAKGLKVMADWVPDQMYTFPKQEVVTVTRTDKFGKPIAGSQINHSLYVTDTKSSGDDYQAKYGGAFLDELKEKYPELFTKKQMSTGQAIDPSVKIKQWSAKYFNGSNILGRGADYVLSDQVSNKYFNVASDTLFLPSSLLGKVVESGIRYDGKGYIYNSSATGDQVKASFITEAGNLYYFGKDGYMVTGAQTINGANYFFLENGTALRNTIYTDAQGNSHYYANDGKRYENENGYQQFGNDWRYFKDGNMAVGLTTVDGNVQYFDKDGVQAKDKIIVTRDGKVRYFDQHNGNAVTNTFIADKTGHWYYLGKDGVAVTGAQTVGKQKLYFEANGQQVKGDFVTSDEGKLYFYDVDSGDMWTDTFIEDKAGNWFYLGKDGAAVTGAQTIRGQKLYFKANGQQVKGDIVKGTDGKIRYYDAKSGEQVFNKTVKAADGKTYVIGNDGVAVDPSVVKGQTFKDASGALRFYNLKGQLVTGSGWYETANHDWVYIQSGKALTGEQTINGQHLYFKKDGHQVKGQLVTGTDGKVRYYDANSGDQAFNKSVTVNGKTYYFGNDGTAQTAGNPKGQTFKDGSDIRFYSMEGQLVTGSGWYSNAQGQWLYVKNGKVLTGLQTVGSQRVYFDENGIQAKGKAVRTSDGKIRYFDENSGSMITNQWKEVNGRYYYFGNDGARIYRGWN

How the values were obtained:
[1] = biological target: T1, water-insoluble glucan producing enzyme (Streptococcus downei, UniProt P27470); assay: Effect of saccharides on formation of water-insoluble glucan from sucrose (Experiment 3); format: biochemical, Streptococcus mutans 6715 strain; details: 1 ml 4 w/v % sucrose plus 1 ml 4 w/v % saccharide, 0.02 units enzyme, 37° C., 16 hours
T1 construct: endogenous in cells; host or cells: Streptococcus mutans 6715 strain (today S. sobrinus), culture supernatant, ammonium sulfate precipitate, dialyzed
Experimental: After completion of the cultivation, the culture was separated into cell precipitant and supernatant. Thereafter, to the supernatant was added with ammonium sulfate to give 60% saturation, and the resultant precipitant was dialyzed against 0.1M phosphate buffer (pH 7.2) to obtain an aqueous solution containing the enzyme.
The titers of the enzyme were assayed as follows: A mixture solution, consisting of 1 ml of 0.2M aqueous sucrose solution, 1 ml of water, 1 ml of 0.1M phosphate buffer containing 0.05 w/v % NaN3, and 0.5 ml of the enzyme solution (below 0.05 units), is incubated at 37° C. for 9 hours, followed by centrifugation of the reaction mixture. The resultant precipitant is mixed with 4 ml of 0.5N sodium hydroxide solution, and then incubated at this temperature for an additional one hour to dissolve the precipitant. The amount of water-insoluble glucan formed during the enzymatic reaction is then measured. One unit of the enzyme is defined as the amount of enzyme that transfers 1 μmole glucose from sucrose to the water-insoluble glucan in one minute.
Effects of some saccharides on the formation of water-insoluble glucan were tested: Water-insoluble glucan formation and inhibition thereof were determined according to the enzyme assay method as described in EXPERIMENT 1, except that the mixture solution contained sucrose, or sucrose and each saccharide as listed in TABLE I. The experiment was carried out as follows: A mixture solution, consisting of 1 ml of 4 w/v % aqueous sucrose solution, 1 ml of 4 w/v % aqueous solution of each saccharide as listed in TABLE I, 1.5 ml of 0.1M phosphate buffer containing 0.05 w/v % NaN3, and 0.5 ml of the enzyme solution (0.02 units), was incubated at 37° C. for 16 hours, and the water-insoluble glucan formation in the reaction mixture was determined according to the enzyme assy method.
In a control experiment, 1 ml of the above described saccharide solution was replaced with the same amount of water.
The inhibition degree was calculated with following equation:
Inhibition degree (%)=100-A/B×100
where A and B are respective amounts of the water-insoluble glucan formed (μg/ml) when the mixture solution contained sucrose or sucrose and each of the saccharides.

[2] = biological target: T1, water-insoluble glucan producing enzyme; assay: as above; format: biochemical, Streptococcus mutans 6715 strain; details: saccharide reduced to 10% against sucrose: 1 ml 4 w/v % sucrose plus 1 ml 0.4 w/v % saccharide, 37° C., 16 hours

SMILES | B: inhibition degree on water-insoluble glucan formation [1] | B: inhibition degree on water-insoluble glucan formation ([1]; listed as isomaltose) | C: inhibition degree of water-insoluble glucan formation [2] | C: inhibition degree of water-insoluble glucan formation ([2]; listed as isomaltose)
OC[C@H]1O[C@H](OC[C@H]2OC(O)[C@H](O)[C@@H](O)[C@@H]2O)[C@H](O)[C@@H](O)[C@@H]1O (stereo partly drawn) [Isomaltose] | 76% | relatively high inhibition degree | 11% | extremely low inhibition
OC[C@H]1O[C@H](OC[C@H]2OC(O)[C@H](O)[C@@H](O)[C@@H]2O)[C@H](O)[C@@H](O)[C@H]1O (stereo partly drawn) [Melibiose] | 0% |  |  | 
OC[C@H]1O[C@@H](OC[C@H]2OC(O)[C@H](O)[C@@H](O)[C@@H]2O)[C@H](O)[C@@H](O)[C@@H]1O (stereo partly drawn) [Gentiobiose] | 0% |  |  | 
